Laboratory results published in ChEMBL document CHEMBL2010639, “Structure-activity relationship of selected polyphenol derivatives as inhibitors of Bax/Bcl-xL interaction” (Eur J Med Chem, 2012).

The chains behind the UniProt entries cited, without tags or fusion partners.
UniProt Q07820, whole entry: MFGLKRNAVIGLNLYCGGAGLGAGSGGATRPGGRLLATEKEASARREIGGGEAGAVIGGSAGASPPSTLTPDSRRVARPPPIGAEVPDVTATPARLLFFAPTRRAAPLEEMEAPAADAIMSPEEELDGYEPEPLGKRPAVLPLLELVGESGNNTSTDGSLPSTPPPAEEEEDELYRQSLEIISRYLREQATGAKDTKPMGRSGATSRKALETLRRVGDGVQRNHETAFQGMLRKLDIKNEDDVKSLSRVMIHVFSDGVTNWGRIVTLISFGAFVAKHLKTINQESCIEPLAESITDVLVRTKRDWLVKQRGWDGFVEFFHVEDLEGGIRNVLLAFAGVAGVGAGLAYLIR

Target: Induced myeloid leukemia cell differentiation protein Mcl-1 (Homo sapiens, UniProt Q07820)
Test: Binding affinity to Mcl-1

## CN(C)CC[C@H](CSc1ccccc1)Nc1ccc(S(=O)(=O)NC(=O)c2ccc(N3CCN(Cc4ccccc4-c4ccc(Cl)cc4)CC3)cc2)cc1[N+](=O)[O-] [ABT 737]
  Ki: > 20 µM
